Literature values as cited in patent publication US20190214145A1, “Method and systems for creating and screening patient metabolite profile to diagnose current medical condition, diagnose current treatment state and recommend new treatment regimen” (priority 2018, published 2019).

Settings: vaporizing temperature

## α,β-pinene
  BP: 155 °C
